Assay results published in PubChem BioAssay (Tox21).
The list shows a part of the results, in another mix than the full data. Records with an inconclusive call do not appear. Calls of active or inactive are those of the source. Unless noted, calls come from the whole dose curve; as a rule, active = well fitted curve in the direction sought with a large enough effect in the repeat runs; inconclusive = weak or mixed curves; inactive = no such curve, though single readings can be large; an effect the other way counts as inactive or inconclusive.

The chains behind the UniProt entries cited, without tags or fusion partners.
UniProt O75469, whole entry: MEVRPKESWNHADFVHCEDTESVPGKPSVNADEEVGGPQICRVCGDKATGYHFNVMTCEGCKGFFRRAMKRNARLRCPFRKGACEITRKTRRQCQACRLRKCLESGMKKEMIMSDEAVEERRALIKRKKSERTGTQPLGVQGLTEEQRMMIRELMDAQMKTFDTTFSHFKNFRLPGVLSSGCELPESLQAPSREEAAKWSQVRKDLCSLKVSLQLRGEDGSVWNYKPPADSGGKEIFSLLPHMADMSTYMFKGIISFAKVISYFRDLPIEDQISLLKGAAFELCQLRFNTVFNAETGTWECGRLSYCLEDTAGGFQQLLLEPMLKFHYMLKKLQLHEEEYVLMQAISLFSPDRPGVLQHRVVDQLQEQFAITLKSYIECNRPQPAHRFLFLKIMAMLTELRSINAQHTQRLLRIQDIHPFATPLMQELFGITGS
UniProt Q92731, whole entry: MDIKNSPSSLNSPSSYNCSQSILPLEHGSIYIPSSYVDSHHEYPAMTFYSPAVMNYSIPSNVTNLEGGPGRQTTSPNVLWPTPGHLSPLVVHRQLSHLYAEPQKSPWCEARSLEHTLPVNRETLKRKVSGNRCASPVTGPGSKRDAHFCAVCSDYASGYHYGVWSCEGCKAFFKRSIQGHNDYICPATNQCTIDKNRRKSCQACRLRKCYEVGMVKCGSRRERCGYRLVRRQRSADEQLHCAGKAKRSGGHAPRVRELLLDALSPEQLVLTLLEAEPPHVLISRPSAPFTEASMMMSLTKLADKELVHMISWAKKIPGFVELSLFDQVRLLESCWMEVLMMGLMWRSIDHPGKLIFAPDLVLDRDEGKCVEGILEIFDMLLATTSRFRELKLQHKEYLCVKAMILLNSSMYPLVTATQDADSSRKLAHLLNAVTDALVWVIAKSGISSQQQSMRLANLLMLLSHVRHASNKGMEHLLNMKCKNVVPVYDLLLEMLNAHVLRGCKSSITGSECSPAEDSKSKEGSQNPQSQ

What was measured:
[1] = qHTS assay to identify aromatase inhibitors - cell viability counter screen (AID 743084);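 note: cells stimulated with testosterone during compound exposure; % is set by controls: 0 for no effect and ±100 for the full control effect; nearly all actives have a fitted effect of over 55% in size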
[2] = biological target: Nuclear receptor subfamily 1 group I member 2 (Homo sapiens) (UniProt O75469); assay: Human pregnane X receptor (PXR) small molecule agonists, qHTS assay (AID 1346982); conditions: PXR-Luc HepG2, CYP3A4 luciferase reporter, 24 h; note: potency is the fitted concentration of half-maximal effect; nearly all actives have a fitted effect of over 35% in size
Method in brief: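 Agonist mode qHTS: PXR-Luc HepG2 cells plated 5 hr before DMSO-dissolved compounds were pinned in, cultured 24 hr at 37 C, 5% CO2; ONE-Glo luminescence readout.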

[3] = qHTS assay to identify small molecule antagonists of the thyroid receptor (TR) signaling pathway - cell viability counter screen (AID 743064); conditions: GH3.TRE-Luc viability, CellTiter-Fluor, 24 h; note: potency is the fitted concentration of half-maximal effect; nearly all actives have a fitted effect of over 50% in size
Method in brief: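 In-well cytotoxicity read by CellTiter-Fluor (30 min, 37 C) following 23.5 h exposure of GH3 cells bearing a TRE-luciferase sensor. Compounds were added alongside 1 nM (final) T3 to drive TR transactivation.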

[4] = qHTS assay to identify small molecule antagonists of the thyroid receptor (TR) signaling pathway (AID 743065); conditions: GH3.TRE-Luc, T3-stimulated luciferase inhibition, 23.5 h; note: potency is the fitted concentration of half-maximal effect; nearly all actives have a fitted effect of over 55% in size
Method in brief: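 Antagonism measured as loss of luciferase signal in GH3 cells stably carrying a TRE-luciferase reporter, co-treated with compound and T3 (1 nM final) for 23.5 h at 37 C. Viability was read in the same well by CellTiter-Fluor.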

[5] = qHTS assay for small molecule agonists of the antioxidant response element (ARE) signaling pathway (AID 743202; active = well fitted activation curve with a large enough effect in the signal ratio in the repeat runs, not every such curve was filed as active; the % refers to the signal ratio; note: potency is the fitted concentration of half-maximal effect); conditions: HepG2 ARE-bla reporter, beta-lactamase FRET, 16 h
Method in brief: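 An ARE-responsive beta-lactamase gene stably integrated in HepG2 cells serves as reporter. After 5 h plating and 16 h compound incubation at 37 C, fluorescence of the B/G FRET substrate was measured.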

[6] = qHTS assay to identify small molecule antagonists of the estrogen related receptor (ERR) signaling pathway from Tox21 library (AID 1224848); conditions: ERR reporter cell line, luciferase antagonist mode, 18 h; note: potency is the fitted concentration of half-maximal effect; nearly all actives have a fitted effect of over 50% in size
Method in brief: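 Reading was by luminescence 30 min after ONE-Glo addition. Before that, ERR cells at 2,000 per well had rested 6 h at 37 C/5% CO2 and then received pin-tooled compounds in DMSO for 18 h at 37 C.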

[7] = qHTS assay to identify small molecule antagonists of the androgen receptor (AR) signaling pathway using the MDA cell line in the presence of 0.5 nM R1881 - cell viability counter screen (AID 1259242); conditions: MDA-kb2 viability, CellTiter-Fluor protease fluorescence, 16 h; at 92.4 µM (top of the series); note: % is set by controls: 0 for no effect and ±100 for the full control effect; nearly all actives have a fitted effect of over 45% in size
Method in brief: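 Cytotoxicity toward MDA-kb2 cells is measured by CellTiter-Fluor live-cell protease fluorescence after 16 hr compound exposure at 37C in the presence of 0.5 nM R1881 stimulator.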

[8] = qHTS assay to identify small molecule agonists of the sonic hedgehog signaling (Shh) pathway - cell viability counter screen (AID 1259366); note: % is set by controls: 0 for no effect and ±100 for the full control effect; nearly all actives have a fitted effect of over 50% in size
Method in brief: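 Cytotoxicity counter screen: CellTiter-Fluor reagent added after 23 h compound exposure, then 1 h at 37C and fluorescence read. Cells were 3T3 Gli1-Luc, seeded 2,000 per well and dosed 4 h post-plating.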

[9] = biological target: Estrogen receptor beta (Homo sapiens) (UniProt Q92731); assay: qHTS assay to identify small molecule antagonists of the estrogen receptor beta (ER-beta) signaling pathway (AID 1259378; active = well fitted inhibition curve with a large enough effect in the signal ratio in the repeat runs, not every such curve was filed as active; the % refers to the signal ratio; note: % is set by controls: 0 for no effect and ±100 for the full control effect); conditions: ER-beta-UAS-bla HEK293T, beta-lactamase FRET ratio, 16 h; at 92.4 µM (top of the series)
Method in brief: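 Antagonist mode: compounds added to beta-lactamase reporter HEK293T ER-beta-UAS cells stimulated with E2 (1nM final), 16 hr at 37C. LiveBLAzer B/G FRET substrate, 2 hours room temperature, fluorescence read-out.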

[10] = Human pregnane X receptor (PXR) small molecule agonists, qHTS cell viability counter screen (AID 1346977); conditions: PXR-Luc HepG2 viability, CellTiter-Fluor, 24 h; note: potency is the fitted concentration of half-maximal effect; nearly all actives have a fitted effect of over 50% in size
Method in brief: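 Same-well viability read: CellTiter-Fluor added after 23 hr compound exposure, fluorescence measured 1 hr later. Cells were PXR-Luc HepG2 seeded at 2,000/well in 5% charcoal-stripped FBS medium, rested 5 hr before dosing at 37 C.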

[11] = qHTS assay to test for compound auto fluorescence at 535 nm (green) in HepG2 cells (AID 720675); conditions: green autofluorescence 485/535 nm, 1 h; at 91.3 µM (top of the series); note: % is set by controls: 0 for no effect and ±100 for the full control effect
[12] = A CellTox Green Cytotoxicity Assay to monitor cytotoxicity in HepG2 cells - 32 hour (AID 1224883); conditions: CellTox Green fluorescence; at 76.8 µM (top of the series)
Method in brief: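 Real-time, homogeneous cytotoxicity readout: dead-cell DNA staining by CellTox Green in HepG2 monolayers, fluorescence measured at timed intervals up to 40 h of continuous compound exposure.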

[13] = Caspase-3/7 induction in CHO-K1 cells by small molecules, qHTS cell viability counter screen (AID 1346979); conditions: CellTiter-Fluor fluorescence, 17 h; note: potency is the fitted concentration of half-maximal effect; nearly all actives have a fitted effect of over 35% in size
Method in brief: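 Cytotoxicity counter screen: CellTiter-Fluor added to compound-treated wild-type CHO-K1 cells at 16 h (37C, 5% CO2), fluorescence measured 1 h later; same wells as caspase-3/7 measurement.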

With CCC(=O)N(c1ccccc1)C1(COC)CCN(CCn2nnn(CC)c2=O)CC1 the Potency [1] was “inactive” and the Potency [2] was active: 26.8 µM.

With CCC(=O)N(c1ccccc1)C1(COC)CCN(CCc2cccs2)CC1 the Potency [3] was active: 54.4 µM, the Potency [4] was active: 54.4 µM and the Potency [5] was active: 27.3 µM. For the same compound, the Potency [6] was active: 48.5 µM, the viability change, negative = cytotoxic [7] was inactive: -15.6% and the Potency [8] was “inactive”. For the same compound, the activity, negative = inhibition [9] was inactive: -17.8% and the Potency [10] was active: 61.1 µM.

In the case of O=[N+]([O-])C(Cl)(Cl)Cl, the fluorescence, % of fluorescein control [11] is reported as inactive: -0.112%, the cytotoxicity increase [12] is reported as inactive: -17.8% and the Potency [13] is reported as active: 15.3 µM.
